The source of these data is ChEMBL document CHEMBL1128234, “Isothiocyanate-substituted benzyl ether opioid receptor ligands derived from 6 beta-naltrexol” (J Med Chem, 1995).

This experiment has as its target Opioid receptors; mu/kappa/delta. Nature of the experiment: Inhibitory concentration was determined against Opioid receptors using [3H]- bremazocine radioligand. In kind it is protein assay, Cavia porcellus. Put shortly: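 Guinea pig brain (minus cerebellum) homogenate in 0.05 M Tris pH 7.4, diluted 1:60 (0.8-1.5 mg protein/ml). Ligand tested in duplicate at nine concentrations; 60 min at 25 °C. Nonspecific binding defined with naloxone. Filtration, ice-cold buffer rinse, scintillation counting.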

Regarding `Oc1ccc2c3c1O[C@H]1[C@@H](O)CC[C@@]4(O)[C@@H](C2)N(CC2CC2)CC[C@]314`, the IC50 is 8.3 nM.

By IC50 is commonly meant the concentration at which inhibition is half-maximal.
